Test system: health men
Assay: Safety Test 2: vital signs in supine position, Silodosin combination
Format: in vivo, human
Description: 9 health men aged 19 to 50 years were divided into three groups according to randomization list, and administered by a) placebo and the pyrazolopyrimidinone of chemical formula (I) (Group A), b) placebo and Silodosin (Group B), and c) Silodosin and the pyrazolopyrimidinone of formula (I) (Group C) to evaluate the effect of the combinational administration of the pyrazolopyrimidinone of formula (I) and Silodosin on the safety.
The safety evaluation was performed by observing vital signs (diastolic blood pressure, pulse rate, body temperature), clinical laboratory testing, electrocardiogram, adverse reactions such as subjective symptom and objective symptom. In addition, the effect of drug-drug interaction on pharmacokinetics of the pyrazolopyrimidinone was observed.

`C[C@H](Cc1cc2c(c(C(N)=O)c1)N(CCCO)CC2)NCCOc1ccccc1OCC(F)(F)F` [Silodosin, reference compound] was tested, and the “Diastolic blood pressure mean” value was 112.4.

Source: patent US20100210668A1, “COMPOSITION AND METHOD FOR TREATMENT OR PREVENTION OF BENIGN PROSTATIC HYPERPLASIA AND LOWER URINARY TRACT SYMPTOMS” (DONG-A PHARM. CO., LTD., priority 2007, published 2010)
